# Data as given in patent publication EP1143992B1, “THERAPEUTIC COMPOSITIONS CONTAINING GLUTATHIONE ANALOGS” (TELIK, INC., priority 1999, dated 2000).
# Where two headings read alike, the source gives them in different places.
# Details: ethanol dilution
# Method: The lyophilization cycle involved rapid freezing of the sample (2.5 ml fill of 10 ml vial) to a sample temperature of -50°C, followed by lyophilization at a tray temperature of -35°C for 42 hours to remove primary water, and for 2 hours at 20°C to remove secondary water.
# The MLVs may be passed (5-10x) through stacked polycarbonate filters (pore size of 80 nm) using an EXTRUDER (Lipex Biomembranes, Vancouver, Canada).
structure (smiles),measurement,setting,value
"CCOC(=O)C(N)CCC(=O)NC(CSCc1ccccc1)C(=O)N[C@@H](C(=O)OCC)c1ccccc1.Cl (stereo partly drawn) [Compound 9, γ-Glutamyl-S(benzyl)cysteinyl-R-phenyl glycine diethyl ester hydrochloride]",Drug,"Drug/Lipid 0.1 wt/wt, EPC, comparative example",12.9 mg/mL
same,Drug,"Drug/Lipid 0.14 wt/wt, EPC/EPG (1/1)",14.4 mg/mL
same,Drug,"Drug/Lipid 0.25 wt/wt, EPC/EPG (9/1), comparative example",13.6 mg/mL
